Results: ChEMBL document CHEMBL1128360 (J Med Chem, 1995)

The chains behind the UniProt entries cited, without tags or fusion partners.
UniProt P19327, whole entry: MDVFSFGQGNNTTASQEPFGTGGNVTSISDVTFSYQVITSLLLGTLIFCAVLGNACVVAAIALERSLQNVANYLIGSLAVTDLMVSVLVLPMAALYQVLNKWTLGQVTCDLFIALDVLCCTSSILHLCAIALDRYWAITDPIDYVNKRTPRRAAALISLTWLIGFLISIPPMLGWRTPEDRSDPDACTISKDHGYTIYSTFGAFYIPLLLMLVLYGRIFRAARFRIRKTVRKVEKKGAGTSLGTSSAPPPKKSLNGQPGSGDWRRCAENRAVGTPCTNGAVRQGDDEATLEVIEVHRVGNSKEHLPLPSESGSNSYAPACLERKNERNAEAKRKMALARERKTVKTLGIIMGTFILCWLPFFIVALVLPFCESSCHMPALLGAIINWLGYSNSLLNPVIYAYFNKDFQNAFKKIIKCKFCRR

Target: 5-hydroxytryptamine receptor 1A (Rattus norvegicus, UniProt P19327)
Experiment: Inhibitory affinity constant against 5-hydroxytryptamine 1A receptor

- Ki: 38.6 nM
SMILES: O=C1CC2(CCCC2)CC(=O)N1CCCCN1CCN(c2ccc3ccccc3n2)CC1
